Amino acid sequences for entries named in this document (tags omitted).
UniProt P01112, whole entry: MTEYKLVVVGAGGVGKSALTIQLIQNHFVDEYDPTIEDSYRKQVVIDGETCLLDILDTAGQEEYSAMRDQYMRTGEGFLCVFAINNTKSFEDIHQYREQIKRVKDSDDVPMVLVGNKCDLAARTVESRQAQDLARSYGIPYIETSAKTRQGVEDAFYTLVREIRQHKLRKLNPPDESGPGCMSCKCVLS

What follows are compounds tested against HRAS wild-type protein (Homo sapiens, UniProt P01112) (assay: Binding to HRAS by surface plasmon resonance (SPR), KD and KD ratio to KRAS). Conditions: ratio of KD for HRAS wild-type protein to KD for KRAS.
For `CCO[C@@H]1C[C@H]2C(=O)NC3(CC(C)(C)C3)C(=O)N(C)[C@@H](C3CCCC3)C(=O)N(C)[C@H](C(=O)N(CC)CC)CC(=O)N(C)[C@@H](COC)C(=O)N[C@@H]([C@@H](C)CC)C(=O)N(C)CC(=O)N(C)[C@H]3C/C=C\CCN(C3=O)[C@@H](Cc3ccc(C)cc3)C(=O)N(C)CC(=O)N[C@@H](CCc3ccc(C(F)(F)F)c(OC)c3)C(=O)N2C1`, the “HRAS /KRAS” value was “A (a compound having 10 or more and less than 20 is denoted as A)”. With `CCO[C@@H]1C[C@H]2C(=O)NC3(CC(C)(C)C3)C(=O)N(C)[C@@H](C(CC)CC)C(=O)N(C)[C@H](C(=O)N(C)C)CC(=O)N(C)[C@@H](COC)C(=O)N[C@@H]([C@@H](C)CC)C(=O)N(C)CC(=O)N(C)[C@H]3C/C=C\CCN(C3=O)[C@@H](CC3CCCCC3)C(=O)N(C)CC(=O)N[C@@H](CCc3cc(F)c(C(F)(F)F)c(F)c3)C(=O)N2C1` the “HRAS /KRAS” value was “A (a compound having 10 or more and less than 20 is denoted as A)”. In the case of `CCOC[C@H]1C(=O)N[C@@H]([C@@H](C)CC)C(=O)N(C)CC(=O)N(C)[C@H]2C/C=C\CCN(C2=O)[C@@H](CC2CCC(F)(F)CC2)C(=O)N(C)CC(=O)N[C@@H](CCc2ccc(C(F)(F)F)c(OC)c2)C(=O)N2C[C@H](OCC)C[C@H]2C(=O)NC2(CC(C)(C)C2)C(=O)N(C)[C@@H](C(CC)CC)C(=O)N(C)[C@H](C(=O)N(C)C)CC(=O)N1C`, the “HRAS /KRAS” value is reported as “A (a compound having 10 or more and less than 20 is denoted as A)”.

Same assay, conditions: ratio of KD with respect to HRAS wild-type protein to KD with respect to KRAS
With `CCCN1CC(=O)NC2(CCC2)C(=O)N(C)[C@@H](C2CCCC2)C(=O)N(C)[C@H](C(=O)N(C)C)CC(=O)N(C)[C@@H](CC)C(=O)N[C@@H]([C@@H](C)CC)C(=O)N(C)CC(=O)N(C)[C@H]2C/C=C\CCN(C2=O)[C@@H](Cc2ccc(C(F)(F)F)cc2)C(=O)N(C)CC(=O)N[C@@H](CCc2cc(F)c(C(F)(F)F)c(F)c2)C1=O` the “HRAS /KRAS” value was “A (a compound having 10 or more and less than 20 is denoted as A)”. With `CC[C@H](C)[C@@H]1NC(=O)[C@H](CC)N(C)C(=O)C[C@@H](C(=O)N(C)C)N(C)C(=O)[C@H](C2CCCC2)N(C)C(=O)C2(CCCC2)NC(=O)[C@@H]2CCCN2C(=O)[C@H](CCc2cc(F)c(C(F)(F)F)c(F)c2)NC(=O)CN(C)C(=O)[C@H](Cc2ccc(C(F)(F)F)cc2)N2C[C@H](C)CC[C@@H](C2=O)N(C)C(=O)CN(C)C1=O` the “HRAS /KRAS” value was “B (a compound having 3 or more and less than 10 is denoted as B)”. `CCO[C@@H]1C[C@H]2C(=O)NC3(CCC3)C(=O)N(C)[C@@H](C3CCCC3)C(=O)N(C)[C@H](C(=O)N3CCOCC3)CC(=O)N(C)[C@@H](CC)C(=O)N[C@@H]([C@@H](C)CC)C(=O)N(C)CC(=O)N(C)[C@H]3CCCCCN(C3=O)[C@@H](Cc3ccc(F)cc3)C(=O)N(C)CC(=O)N[C@@H](CCc3cc(F)c(C(F)(F)F)c(F)c3)C(=O)N2C1` was tested, and the “HRAS /KRAS” value was “B (a compound having 3 or more and less than 10 is denoted as B)”. `CCO[C@@H]1C[C@H]2C(=O)NC3(CCC3)C(=O)N(C)[C@@H](C3CCCC3)C(=O)N(C)[C@H](C(=O)N3CCOCC3)CC(=O)N(C)[C@@H](CC3CC3)C(=O)N[C@@H]([C@@H](C)CC)C(=O)N(C)CC(=O)N(C)[C@H]3C/C=C\CCN(C3=O)[C@@H](Cc3ccc(C(F)(F)F)cc3)C(=O)N(C)CC(=O)N[C@@H](CCc3cc(F)c(C(F)(F)F)c(F)c3)C(=O)N2C1` was tested, and the “HRAS /KRAS” value was “A (a compound having 10 or more and less than 20 is denoted as A)”. With `CC[C@H](C)[C@@H]1NC(=O)[C@H](CC2CC2)N(C)C(=O)C[C@@H](C(=O)N(C)C)N(C)C(=O)[C@H](C2CCCC2)N(C)C(=O)C2(CCCC2)NC(=O)[C@@H]2CCCN2C(=O)[C@H](CCc2ccc(C(F)(F)F)c(Cl)c2)NC(=O)CN(C)C(=O)[C@H](Cc2ccc(C(F)(F)F)cc2)N2C[C@H](C)CC[C@@H](C2=O)N(C)C(=O)CN(C)C1=O` the “HRAS /KRAS” value was “B (a compound having 3 or more and less than 10 is denoted as B)”. With `CCO[C@@H]1C[C@H]2C(=O)NC3(CCC3)C(=O)N(C)[C@@H](C3CCCC3)C(=O)N(C)[C@H](C(=O)N(C)C)CC(=O)N(C)[C@@H](CC(C)C)C(=O)N[C@@H]([C@@H](C)CC)C(=O)N(C)CC(=O)N(C)[C@H]3C/C=C\CCN(C3=O)[C@@H](Cc3ccc(F)cc3)C(=O)N(C)CC(=O)N[C@@H](CCc3cc(F)c(Cl)c(F)c3)C(=O)N2C1` the “HRAS /KRAS” value was “B (a compound having 3 or more and less than 10 is denoted as B)”. For `CCO[C@@H]1C[C@H]2C(=O)NC3(CCC3)C(=O)N(C)[C@@H](C3CCCC3)C(=O)N(C)[C@H](C(=O)N3CCOCC3)CC(=O)N(C)[C@@H](COC)C(=O)N[C@@H]([C@@H](C)CC)C(=O)N(C)CC(=O)N(C)[C@H]3CCCCCN(C3=O)[C@@H](Cc3ccc(F)cc3)C(=O)N(C)CC(=O)N[C@@H](CCc3cc(F)c(C(F)(F)F)c(F)c3)C(=O)N2C1`, the “HRAS /KRAS” value was “B (a compound having 3 or more and less than 10 is denoted as B)”. For `CCO[C@@H]1C[C@H]2C(=O)NC3(CCC3)C(=O)N(C)[C@@H](C3CCCC3)C(=O)N(C)[C@H](C(=O)N3CCCC3)CC(=O)N(C)[C@@H](CC3CC3)C(=O)N[C@@H]([C@@H](C)CC)C(=O)N(C)CC(=O)N(C)[C@H]3C/C=C\CCN(C3=O)[C@@H](Cc3ccc(C)cc3)C(=O)N(C)CC(=O)N[C@@H](CCc3cc(F)c(C(F)(F)F)c(F)c3)C(=O)N2C1`, the “HRAS /KRAS” value was “A (a compound having 10 or more and less than 20 is denoted as A)”. For `CCO[C@@H]1C[C@H]2C(=O)NC3(CCCCC3)C(=O)N(C)[C@@H](C3CCCC3)C(=O)N(C)[C@H](C(=O)N(C)C)CC(=O)N(C)[C@@H](CC)C(=O)N[C@@H]([C@@H](C)CC)C(=O)N(C)CC(=O)N(C)[C@H]3C/C=C\CCN(C3=O)[C@@H](Cc3ccc(C(F)(F)F)cc3)C(=O)N(C)CC(=O)N[C@@H](CCc3cc(F)c(C(F)(F)F)c(F)c3)C(=O)N2C1`, the “HRAS /KRAS” value was “A (a compound having 10 or more and less than 20 is denoted as A)”. In the case of `CCO[C@@H]1C[C@H]2C(=O)NC3(CCC3)C(=O)N(C)[C@@H](C3CCCC3)C(=O)N(C)[C@H](C(=O)N(C)C)CC(=O)N(C)[C@@H](COC)C(=O)N[C@@H]([C@@H](C)CC)C(=O)N(C)CC(=O)N(C)[C@H]3CCCCCN(C3=O)[C@@H](Cc3ccc(F)cc3)C(=O)N(C)CC(=O)N[C@@H](CCc3cc(F)c(C(F)(F)F)c(F)c3)C(=O)N2C1`, the “HRAS /KRAS” value is reported as “B (a compound having 3 or more and less than 10 is denoted as B)”. For `CC[C@H](C)[C@@H]1NC(=O)[C@H](CC2CC2)N(C)C(=O)C[C@@H](C(=O)N2CCOCC2)N(C)C(=O)[C@H](C2CCCC2)N(C)C(=O)C2(CCCC2)NC(=O)[C@@H]2CCCN2C(=O)[C@H](CCc2ccc(C(F)(F)F)c(Cl)c2)NC(=O)CN(C)C(=O)[C@H](Cc2ccc(C(F)(F)F)cc2)N2C[C@H](C)CC[C@@H](C2=O)N(C)C(=O)CN(C)C1=O`, the “HRAS /KRAS” value was “B (a compound having 3 or more and less than 10 is denoted as B)”. `CCO[C@@H]1C[C@H]2C(=O)NC3(CCC3)C(=O)N(C)[C@@H](C(CC)CC)C(=O)N(C)[C@H](C(=O)N(C)C)CC(=O)N(C)[C@@H](CC(C)C)C(=O)N[C@@H]([C@@H](C)CC)C(=O)N(C)CC(=O)N(C)[C@H]3C/C=C\CCN(C3=O)[C@@H](CC3CCCCC3)C(=O)N(C)CC(=O)N[C@@H](CCc3cc(F)c(C(F)(F)F)c(F)c3)C(=O)N2C1` was tested, and the “HRAS /KRAS” value was “A (a compound having 10 or more and less than 20 is denoted as A)”. With `CCO[C@@H]1C[C@H]2C(=O)NC3(CCC3)C(=O)N(C)[C@@H](C3CCCC3)C(=O)N(C)[C@H](C(=O)N(C)C)CC(=O)N(C)[C@@H](CC3CC3)C(=O)N[C@@H]([C@@H](C)CC)C(=O)NCC(=O)N(C)[C@H]3C/C=C\CCN(C3=O)[C@@H](Cc3ccc(C(F)(F)F)cc3)C(=O)N(C)CC(=O)N[C@@H](CCc3cc(F)c(C(F)(F)F)c(F)c3)C(=O)N2C1` the “HRAS /KRAS” value was “B (a compound having 3 or more and less than 10 is denoted as B)”. With `CCO[C@@H]1C[C@H]2C(=O)NC3(CCC3)C(=O)N(C)[C@@H](C3CCCC3)C(=O)N(C)[C@H](C(=O)N(C)C)CC(=O)N(C)[C@@H](CC3CCCC3)C(=O)N[C@@H]([C@@H](C)CC)C(=O)N(C)CC(=O)N(C)[C@H]3C/C=C\CCN(C3=O)[C@@H](Cc3ccc(C(F)(F)F)cc3)C(=O)N(C)CC(=O)N[C@@H](CCc3cc(F)c(Cl)c(F)c3)C(=O)N2C1` the “HRAS /KRAS” value was “B (a compound having 3 or more and less than 10 is denoted as B)”. With `CCO[C@@H]1C[C@H]2C(=O)NC3(CCC3)C(=O)N(C)[C@@H](C(CC)CC)C(=O)N(C)[C@H](C(=O)N(C)C)CC(=O)N(C)[C@@H](COC)C(=O)N[C@@H]([C@@H](C)CC)C(=O)N(C)CC(=O)N(C)[C@H]3C/C=C\CCN(C3=O)[C@@H](Cc3ccc(C(F)(F)F)cc3)C(=O)N(C)CC(=O)N[C@@H](CCc3ccc4sccc4c3)C(=O)N2C1` the “HRAS /KRAS” value was “A (a compound having 10 or more and less than 20 is denoted as A)”. For `CCO[C@@H]1C[C@H]2C(=O)NC3(CCC3)C(=O)N(C)[C@@H](C3CCCC3)C(=O)N(C)[C@H](C(=O)N(C)C)CC(=O)N(C)[C@@H](CC)C(=O)N[C@@H](C3CCC3)C(=O)N(C)CC(=O)N(C)[C@H]3C/C=C\CCN(C3=O)[C@@H](Cc3ccc(C(F)(F)F)cc3)C(=O)N(C)CC(=O)N[C@@H](CCc3cc(F)c(C(F)(F)F)c(F)c3)C(=O)N2C1`, the “HRAS /KRAS” value was “B (a compound having 3 or more and less than 10 is denoted as B)”. With `CCOC1CC2C(=O)NC3(CCC3)C(=O)N(C)C(C3CCCC3)C(=O)N(C)C(C(=O)N3CCOCC3)CC(=O)N(C)C(Cc3ccccc3)C(=O)NC(C(C)CC)C(=O)N(C)CC(=O)N(C)C3CCCCCN(C3=O)C(Cc3ccc(F)cc3)C(=O)N(C)CC(=O)NC(CCc3cc(F)c(C(F)(F)F)c(F)c3)C(=O)N2C1` (stereo not drawn) the “HRAS /KRAS” value was “B (a compound having 3 or more and less than 10 is denoted as B)”. For `CCCOC[C@H]1C(=O)N[C@@H]([C@@H](C)CC)C(=O)N(C)CC(=O)N(C)[C@H]2C/C=C\CCN(C2=O)[C@@H](Cc2ccc(C(F)(F)F)cc2)C(=O)N(C)CC(=O)N[C@@H](CCc2cc(F)c(C(F)(F)F)c(F)c2)C(=O)N2C[C@H](OCC)C[C@H]2C(=O)NC2(CCC2)C(=O)N(C)[C@@H](C2CCCC2)C(=O)N(C)[C@H](C(=O)N(C)C)CC(=O)N1C`, the “HRAS /KRAS” value was “B (a compound having 3 or more and less than 10 is denoted as B)”.

From patent EP4603105A1, “PHARMACEUTICAL COMPOSITION CONTAINING CYCLIC COMPOUND HAVING SELECTIVE KRAS INHIBITORY EFFECT AGAINST HRAS AND NRAS” (CHUGAI SEIYAKU KABUSHIKI KAISHA, priority 2022, dated 2024)
